The values below are quoted from earlier work in patent US11446302B2, “Compounds with anti-tumor activity against cancer cells bearing EGFR or HER2 exon 20 mutations” (Board of Regents, The University of Texas System, priority 2016, dated 2022).

This data set concerns NSCLC with classical sensitizing mutations (L858R and exon 19 deletions). As to conditions: Maemondo et al., 2010; cited from earlier work.

Molecules are shown by their SMILES.

With `COc1cc2ncnc(Nc3ccc(F)c(Cl)c3)c2cc1OCCCN1CCOCC1` [Gefitinib], the “patients experiencing objective responses (OR)” value is listed as “approximately 70%”.
